Results: patent US10562947B2, “Compositions and methods for preventing or treating diseases, conditions or processes characterized by aberrant fibroblast proliferation and extracellular matrix deposition” (MOERAE MATRIX, INC., priority 2011, dated 2020)

By UniProt entry, the sequences of proteins in these tests, tags left out. Where a name states a change or a piece, a line headed by the entry shows the natural chain unless it says otherwise. Residues count along the entry.
UniProt P16234, 24-1089 D842V: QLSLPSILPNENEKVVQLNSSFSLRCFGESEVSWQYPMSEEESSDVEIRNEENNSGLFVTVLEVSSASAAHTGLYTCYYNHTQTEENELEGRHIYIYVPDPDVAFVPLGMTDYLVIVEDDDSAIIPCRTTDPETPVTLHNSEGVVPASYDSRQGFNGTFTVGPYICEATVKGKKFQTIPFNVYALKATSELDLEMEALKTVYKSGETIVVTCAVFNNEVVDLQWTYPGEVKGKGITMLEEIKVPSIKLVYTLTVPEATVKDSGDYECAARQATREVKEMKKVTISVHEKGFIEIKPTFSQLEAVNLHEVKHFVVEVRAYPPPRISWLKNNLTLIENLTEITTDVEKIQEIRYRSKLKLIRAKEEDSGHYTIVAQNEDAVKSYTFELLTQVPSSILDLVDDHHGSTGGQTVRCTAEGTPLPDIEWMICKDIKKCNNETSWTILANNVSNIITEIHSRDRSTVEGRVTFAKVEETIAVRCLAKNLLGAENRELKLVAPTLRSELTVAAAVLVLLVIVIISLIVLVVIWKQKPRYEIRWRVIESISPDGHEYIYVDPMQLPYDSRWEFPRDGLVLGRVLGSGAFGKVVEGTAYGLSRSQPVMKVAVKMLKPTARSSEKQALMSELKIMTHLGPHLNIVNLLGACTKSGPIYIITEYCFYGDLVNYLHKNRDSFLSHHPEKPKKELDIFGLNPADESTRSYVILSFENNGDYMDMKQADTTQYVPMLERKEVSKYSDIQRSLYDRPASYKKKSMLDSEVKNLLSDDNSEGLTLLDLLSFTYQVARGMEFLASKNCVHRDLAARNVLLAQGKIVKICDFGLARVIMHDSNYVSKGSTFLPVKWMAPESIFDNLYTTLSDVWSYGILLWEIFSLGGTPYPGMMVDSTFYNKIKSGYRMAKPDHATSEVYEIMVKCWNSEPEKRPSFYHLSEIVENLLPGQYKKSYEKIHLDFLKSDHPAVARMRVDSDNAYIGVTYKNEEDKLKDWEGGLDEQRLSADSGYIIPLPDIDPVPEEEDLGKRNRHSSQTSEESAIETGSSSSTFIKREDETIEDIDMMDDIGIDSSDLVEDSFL
UniProt Q13464: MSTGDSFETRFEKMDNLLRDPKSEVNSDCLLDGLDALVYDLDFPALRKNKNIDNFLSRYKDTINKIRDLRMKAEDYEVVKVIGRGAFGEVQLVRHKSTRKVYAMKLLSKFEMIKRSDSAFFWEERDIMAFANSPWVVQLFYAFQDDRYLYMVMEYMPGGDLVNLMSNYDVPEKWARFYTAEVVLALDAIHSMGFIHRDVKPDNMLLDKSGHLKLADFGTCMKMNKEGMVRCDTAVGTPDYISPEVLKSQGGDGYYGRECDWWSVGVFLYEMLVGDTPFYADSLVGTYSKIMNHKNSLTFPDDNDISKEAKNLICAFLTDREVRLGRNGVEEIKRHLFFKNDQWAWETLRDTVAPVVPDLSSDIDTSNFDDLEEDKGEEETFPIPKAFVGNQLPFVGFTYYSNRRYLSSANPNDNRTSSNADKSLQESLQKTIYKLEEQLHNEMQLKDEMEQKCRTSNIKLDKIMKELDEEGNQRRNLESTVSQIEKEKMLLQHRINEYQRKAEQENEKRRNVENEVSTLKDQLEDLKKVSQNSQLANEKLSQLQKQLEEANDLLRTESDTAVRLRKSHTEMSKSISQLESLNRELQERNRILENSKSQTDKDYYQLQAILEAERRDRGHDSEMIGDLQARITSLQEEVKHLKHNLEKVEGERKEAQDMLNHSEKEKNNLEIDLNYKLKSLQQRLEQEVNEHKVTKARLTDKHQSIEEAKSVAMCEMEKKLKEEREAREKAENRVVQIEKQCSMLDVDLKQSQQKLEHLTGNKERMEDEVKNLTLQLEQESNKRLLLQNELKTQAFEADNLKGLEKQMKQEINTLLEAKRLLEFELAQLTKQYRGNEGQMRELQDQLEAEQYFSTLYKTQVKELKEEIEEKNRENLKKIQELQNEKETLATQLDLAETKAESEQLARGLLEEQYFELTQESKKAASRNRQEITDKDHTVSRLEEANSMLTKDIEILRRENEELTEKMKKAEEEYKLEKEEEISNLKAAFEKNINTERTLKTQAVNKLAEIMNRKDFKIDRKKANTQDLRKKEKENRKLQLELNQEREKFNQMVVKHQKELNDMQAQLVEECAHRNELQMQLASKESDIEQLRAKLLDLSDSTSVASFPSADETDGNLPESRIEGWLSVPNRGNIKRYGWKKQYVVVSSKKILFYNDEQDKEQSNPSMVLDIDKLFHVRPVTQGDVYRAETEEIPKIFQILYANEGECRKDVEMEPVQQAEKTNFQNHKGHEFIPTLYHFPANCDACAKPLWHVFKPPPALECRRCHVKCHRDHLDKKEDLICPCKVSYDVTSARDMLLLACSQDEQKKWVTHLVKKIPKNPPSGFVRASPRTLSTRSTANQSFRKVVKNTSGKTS
UniProt Q15349, whole entry: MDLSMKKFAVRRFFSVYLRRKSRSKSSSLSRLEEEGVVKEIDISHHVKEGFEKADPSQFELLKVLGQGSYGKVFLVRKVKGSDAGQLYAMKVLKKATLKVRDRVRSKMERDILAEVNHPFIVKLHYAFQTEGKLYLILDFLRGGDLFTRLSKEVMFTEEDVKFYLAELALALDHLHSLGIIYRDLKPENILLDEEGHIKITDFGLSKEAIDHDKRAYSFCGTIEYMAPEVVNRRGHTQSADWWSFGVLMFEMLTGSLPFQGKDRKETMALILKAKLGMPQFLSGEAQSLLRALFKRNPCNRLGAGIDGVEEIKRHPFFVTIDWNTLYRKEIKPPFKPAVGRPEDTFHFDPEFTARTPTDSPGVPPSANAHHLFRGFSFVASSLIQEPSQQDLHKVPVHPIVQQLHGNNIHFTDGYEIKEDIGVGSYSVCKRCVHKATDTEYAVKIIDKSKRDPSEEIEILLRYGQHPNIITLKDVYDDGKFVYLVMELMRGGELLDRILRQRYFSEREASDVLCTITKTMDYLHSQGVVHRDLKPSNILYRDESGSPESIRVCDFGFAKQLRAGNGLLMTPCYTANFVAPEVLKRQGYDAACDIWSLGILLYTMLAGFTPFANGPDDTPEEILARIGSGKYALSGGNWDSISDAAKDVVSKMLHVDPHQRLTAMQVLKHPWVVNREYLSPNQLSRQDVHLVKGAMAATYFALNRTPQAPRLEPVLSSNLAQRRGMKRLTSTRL

Columns and labels:
Assay in all cases: Kinase Profiling Assay
Assay type in all cases: biochemical
Details in all cases: 100 μM peptide
MST2(h) = molecular target: T1, MST2(h) (Homo sapiens, UniProt Q13188)
T1 sequence (Q13188 1-491): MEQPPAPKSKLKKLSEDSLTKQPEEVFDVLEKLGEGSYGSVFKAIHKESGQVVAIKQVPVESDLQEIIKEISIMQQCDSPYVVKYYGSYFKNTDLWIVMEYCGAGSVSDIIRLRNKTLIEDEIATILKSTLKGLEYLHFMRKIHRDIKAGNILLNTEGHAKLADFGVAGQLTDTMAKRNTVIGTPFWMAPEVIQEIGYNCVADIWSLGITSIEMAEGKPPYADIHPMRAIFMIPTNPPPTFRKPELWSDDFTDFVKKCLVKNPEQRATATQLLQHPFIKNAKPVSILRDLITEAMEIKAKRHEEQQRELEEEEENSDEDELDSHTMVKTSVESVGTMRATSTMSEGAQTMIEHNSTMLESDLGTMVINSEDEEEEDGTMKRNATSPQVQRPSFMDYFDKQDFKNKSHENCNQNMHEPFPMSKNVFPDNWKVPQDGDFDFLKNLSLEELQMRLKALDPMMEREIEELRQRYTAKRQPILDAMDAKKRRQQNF
Procedure, shortened: (§1)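 All 266 human kinases of a profiling service were assayed in duplicate to establish whether MK2 inhibitory peptides act specifically.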

PDGFRα(D842V)(h) = PDGFRα(D842V)(h) (Homo sapiens, UniProt P16234, D842V)
Procedure, shortened: as §1

Abl(H396P)(h) = Abl(H396P)(h) (Homo sapiens, UniProt P00519, H396P)
Procedure, shortened: as §1

Ret(V804M)(h) = molecular target: T2, Ret(V804M)(h) (Homo sapiens, UniProt P07949, V804M)
T2 construct: purchased Millipore (IC50 Profiler Express service)
Procedure, shortened: as §1

CHK2(h) = CHK2(h) (Homo sapiens, UniProt O96017)
Procedure, shortened: as §1

JNK2α2(h) = JNK2α2(h) (Homo sapiens, UniProt P45984)
Procedure, shortened: as §1

ROCK-I(h) = molecular target: T3, ROCK-I(h) (Homo sapiens, UniProt Q13464)
T3 construct: purchased Millipore (IC50 Profiler Express service)
Procedure, shortened: as §1

SGK2(h) = molecular target: T4, SGK2(h) (Homo sapiens, UniProt Q9HBY8)
T4 sequence (Q9HBY8 1-367): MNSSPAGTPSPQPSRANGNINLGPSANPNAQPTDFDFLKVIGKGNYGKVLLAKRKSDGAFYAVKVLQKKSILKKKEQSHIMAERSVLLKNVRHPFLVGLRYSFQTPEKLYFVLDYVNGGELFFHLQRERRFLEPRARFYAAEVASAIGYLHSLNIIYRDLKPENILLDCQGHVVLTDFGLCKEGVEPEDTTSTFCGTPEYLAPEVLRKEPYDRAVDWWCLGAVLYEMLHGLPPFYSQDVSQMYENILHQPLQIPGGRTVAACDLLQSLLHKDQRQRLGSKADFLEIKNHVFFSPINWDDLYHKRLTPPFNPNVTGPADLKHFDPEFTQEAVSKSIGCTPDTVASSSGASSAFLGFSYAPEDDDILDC
Procedure, shortened: as §1

Rsk3(h) = Rsk3(h) (Homo sapiens, UniProt Q15349)
Procedure, shortened: as §1

Aurora-A(h) = molecular target: T5, Aurora-A(h) (Homo sapiens, UniProt O14965)
T5 sequence (O14965 1-403): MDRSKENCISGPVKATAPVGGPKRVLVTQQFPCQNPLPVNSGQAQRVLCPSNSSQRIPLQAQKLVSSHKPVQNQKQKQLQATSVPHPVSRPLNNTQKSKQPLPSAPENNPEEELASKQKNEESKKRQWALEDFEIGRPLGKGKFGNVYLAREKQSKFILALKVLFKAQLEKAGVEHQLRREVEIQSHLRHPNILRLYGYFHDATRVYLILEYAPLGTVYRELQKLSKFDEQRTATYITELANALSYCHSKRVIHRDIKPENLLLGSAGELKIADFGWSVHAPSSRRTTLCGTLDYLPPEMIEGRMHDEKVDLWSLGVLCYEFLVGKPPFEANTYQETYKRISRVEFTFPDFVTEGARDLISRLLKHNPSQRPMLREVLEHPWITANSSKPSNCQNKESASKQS
Procedure, shortened: as §1

CDK2/cyclinE(h) = CDK2/cyclinE(h) (Homo sapiens, UniProt P24941)
Procedure, shortened: as §1

CDK9/cyclin T1(h) = CDK9/cyclin T1(h) (Homo sapiens, UniProt P50750)
Procedure, shortened: as §1

Abl(Q252H)(h) = Abl(Q252H)(h) (Homo sapiens, UniProt P00519, Q252H)
Procedure, shortened: as §1

YARAAARQARAKALNRQLGVA (Mammalian) [MMI-0200]
MST2(h) % activity (MST2(h)): 104%
PDGFRα(D842V)(h) % activity (PDGFRα(D842V)(h)): 107%
Abl(H396P)(h) % activity (Abl(H396P)(h)): 121%
Ret(V804M)(h) % activity (Ret(V804M)(h)): 105%
CHK2(h) % activity (CHK2(h)): 105%
JNK2α2(h) % activity (JNK2α2(h)): 109%
ROCK-I(h) % activity (ROCK-I(h)): 117%
SGK2(h) % activity (SGK2(h)): 119%
Rsk3(h) % activity (Rsk3(h)): 109%
Aurora-A(h) % activity (Aurora-A(h)): 107%
CDK2/cyclinE(h) % activity (CDK2/cyclinE(h)): 112%
CDK9/cyclin T1(h) % activity (CDK9/cyclin T1(h)): 103%
Abl(Q252H)(h) % activity (Abl(Q252H)(h)): 107%
